Test results taken from patent publication EP4825855A1, “COMPOUND CONTAINING PYRAZOLE RING AND BICYCLIC HETEROARYL GROUP, PHARMACEUTICAL COMPOSITION THEREOF AND USE THEREOF” (dated 2026).

Protein sequences, listed by entry. Tags and fused reporters are not part of them. Lines headed by an entry give the natural chain unless they say otherwise; changes in a name come on top.
UniProt Q06187, whole entry: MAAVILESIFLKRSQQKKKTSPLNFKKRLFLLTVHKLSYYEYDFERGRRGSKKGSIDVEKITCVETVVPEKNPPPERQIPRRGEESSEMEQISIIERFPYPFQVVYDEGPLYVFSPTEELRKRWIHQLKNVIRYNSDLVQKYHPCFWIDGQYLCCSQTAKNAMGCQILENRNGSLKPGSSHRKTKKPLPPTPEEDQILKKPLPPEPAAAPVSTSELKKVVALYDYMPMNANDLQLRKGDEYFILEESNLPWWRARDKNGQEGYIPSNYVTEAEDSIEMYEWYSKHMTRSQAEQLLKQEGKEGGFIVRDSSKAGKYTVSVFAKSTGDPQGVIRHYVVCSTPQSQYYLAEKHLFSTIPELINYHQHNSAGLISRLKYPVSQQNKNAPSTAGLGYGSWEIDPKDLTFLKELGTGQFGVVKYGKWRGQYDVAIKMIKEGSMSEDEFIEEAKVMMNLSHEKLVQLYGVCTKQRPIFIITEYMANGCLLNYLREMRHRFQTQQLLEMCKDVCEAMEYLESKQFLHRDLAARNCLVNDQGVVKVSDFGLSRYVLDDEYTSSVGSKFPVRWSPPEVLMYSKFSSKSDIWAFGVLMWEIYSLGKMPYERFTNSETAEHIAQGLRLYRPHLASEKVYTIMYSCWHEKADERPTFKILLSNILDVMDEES
UniProt Q06187, whole entry C481S: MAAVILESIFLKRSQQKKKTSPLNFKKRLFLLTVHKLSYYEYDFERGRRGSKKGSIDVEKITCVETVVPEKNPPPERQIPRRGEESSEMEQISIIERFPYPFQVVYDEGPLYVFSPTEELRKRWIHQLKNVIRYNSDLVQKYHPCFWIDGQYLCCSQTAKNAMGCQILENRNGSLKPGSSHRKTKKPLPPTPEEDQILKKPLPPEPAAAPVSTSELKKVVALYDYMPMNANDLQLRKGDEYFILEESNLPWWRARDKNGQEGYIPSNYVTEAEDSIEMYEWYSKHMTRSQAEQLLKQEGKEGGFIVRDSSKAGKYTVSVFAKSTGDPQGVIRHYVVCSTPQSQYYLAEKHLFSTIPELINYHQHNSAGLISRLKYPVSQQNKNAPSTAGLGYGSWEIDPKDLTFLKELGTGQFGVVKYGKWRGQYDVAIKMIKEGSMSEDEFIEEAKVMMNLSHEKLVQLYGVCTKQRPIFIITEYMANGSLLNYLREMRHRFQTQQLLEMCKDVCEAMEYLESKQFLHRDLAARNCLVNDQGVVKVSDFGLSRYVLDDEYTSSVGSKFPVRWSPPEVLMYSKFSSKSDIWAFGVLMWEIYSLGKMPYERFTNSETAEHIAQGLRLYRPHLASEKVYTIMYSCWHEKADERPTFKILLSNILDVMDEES

Assays:
[1] = In vitro stability in liver microsomes (human); conditions: 37 °C, NADPH
Method: (§1) 300 µL of the final incubation system contains 30 µL of liver microsomes (protein concentration: 0.15 mg/mL), 30 µL of NADPH + MgCl2, 3 µL of the test compound (in acetonitrile), and 237 µL of PBS buffer (pH 7.4). The proportion of the organic solvent (acetonitrile) was 1%. Samples were prepared in duplicate of 0.3 mL for each species. Tubes each containing 270 µL of a mixed solution of substrate and enzyme and NADPH were pre-incubated at 37 °C for 5 min. 30 µL of NADPH + MgCl2 was added and the mixture was mixed. 50 µL of the mixture was taken at 0 min, 15 min, 30 min, and 60 min, and 300 µL of glacial acetonitrile containing an internal standard was added to terminate the reaction.
(§2) 300 µL of glacial acetonitrile containing an internal standard (20 ng/mL diazepam) was added to 50 µL of the incubated sample for precipitation. The mixture was vortexed for 5 min, and centrifuged (12,000 rpm, 4 °C) for 10 min. 75 µL of supernatant was taken and diluted with 75 µL of ultrapure water. After being homogeneously mixed, 0.5 µL of the resulting sample was injected for analysis.

[2] = In vitro stability in liver microsomes (mouse); conditions: 37 °C, NADPH
Method: as §1, §2

BTK(WT) kinase = BTK(WT) kinase (Homo sapiens, UniProt Q06187); test: Inhibitory activity against BTK(WT) kinase; conditions: read-out: BTK(WT) kinase inhibition IC50(nM )
Method: (§3) BTK kinase solution (concentration: 0.003 ng/µL) was added to assay wells at 6 µL/well, and different compounds dissolved in DMSO were added to the assay wells separately using a nanoliter pipettor, such that the final concentrations of the compounds were 1000 nM to 0.244 nM. The wells were set in duplicate, and a control well was set. After a 30-min incubation of the above system, ATP (concentration: 50 µM) was mixed with ULight-poly GT substrate (manufacturer: PerkinElmer, concentration: 0.5 µM) in a ratio of 1:1, and the mixture was added to the assay wells at 4 µL/well. The resulting mixture was left to react at room temperature for 2 h, and then 5 µL of EDTA was added to terminate the reaction, followed by the addition of 5 µL of a detection antibody (manufacturer: PerkinElmer, concentration: 8 nM). The mixture was incubated at room temperature for 1 h. The assay was performed using a PerkinElmer Envision multifunctional microplate reader (excitation: 320 nm, emission: 615 nm/665 nm), and IC50 was calculated by four-parameter fitting.

BTK(C481S) kinase = BTK(C481S) kinase (Homo sapiens, UniProt Q06187, C481S); test: Inhibitory activity against BTK(C481S) kinase; conditions: read-out: BTK(C481S) kinase inhibition IC50(nM )
Method: as §3, with “BTK(C481S)” for “BTK”, “0.006” for “0.003”, “fitting. The test results are shown in Table 3, where A represents: the IC50 value ≤ 10 nM.” for “fitting.”

OCI-LY10 cells = test: Inhibitory activity against OCI-LY10 cell proliferation (CCK-8); conditions: 72 h incubation
Method: OCI-LY10 cells in a good growth state were collected into a centrifuge tube, adjusted to a cell density of 9 × 10^4 cells/mL using an assay medium (1640 + 10% FBS), and seeded onto a 96-well plate (100 µL/well). The cells were incubated overnight in a cell incubator. Compounds were added using a nanoliter pipettor such that the final concentrations of the compounds were 1000 nM to 1.64 nM (the addition was performed in duplicate). Meanwhile, a control was set. After 72 h of incubation in the cell incubator, the assay reagent CCK-8 (manufacturer: Dojindo Laboratories; 10 µL/well) was added. After 4 h of incubation in the cell incubator, the absorbance values were measured at 450 nm on a PerkinElmer Envision microplate reader. A four-parameter analysis was performed, a dose-response curve was fitted, and IC50 was calculated. Table 1. Inhibitory activity against OCI-LY10 cell proliferation

SMILES	Human liver microsome (Remaining amount % at 60 min) [1] [%]	Mouse liver microsome (Remaining amount % at 60 min) [2] [%]	IC50 (BTK(WT) kinase) [nM]	IC50 (BTK(C481S) kinase) [nM]	IC50 (OCI-LY10 cells) [nM]
COCCN1CCN(c2ccc(Nc3cnn(-c4ccc(CNc5nc(C)cc6c(F)ccc(OC)c56)cc4)c3C(N)=O)nc2C(OC)C(F)(F)F)CC1 (stereo not shown)	≥60	≥50			
Cc1nc(Nc2cnn(-c3ccc(CNC(=O)c4cc(F)cc5cccnc45)cc3)c2C(N)=O)ccc1NC1CCN(C)CC1	≥60	≥50	< 10	< 10	
COc1ccc(F)c2ccnc(NCc3ccc(-n4ncc(Nc5ccc(N6CCC(N(C)C)CC6)c(C(OC)C6CC6)n5)c4C(N)=O)cc3)c12 (racemic)	≥60	≥50	< 10	< 10	< 10
COc1ccc(F)c2ccnc(NCc3ccc(-n4ncc(Nc5ccc(NC6CCC(N(C)C)CC6)c(C(C)O)n5)c4C(N)=O)cc3)c12 (single isomer, unassigned)	≥60		< 10	< 10	< 10
CCC(O)c1nc(Nc2cnn(-c3ccc(CNc4nccc5c(F)ccc(OC)c45)cc3)c2C(N)=O)ccc1NC1CCC(N(C)C)CC1 (stereo not shown)	≥60		< 10	< 10	< 10
CCC(OC)c1nc(Nc2cnn(-c3ccc(CNC(=O)c4cc(F)cc5cccnc45)cc3)c2C(N)=O)ccc1N1CCC(N(C)C)CC1 (stereo not shown)	≥60	≥50	< 10	< 10	
COC(c1nc(Nc2cnn(-c3ccc(CNC(=O)c4cc(F)cc5cccnc45)cc3)c2C(N)=O)ccc1NC1CCN(C)CC1)C(F)(F)F (stereo not shown)	≥60	≥50	< 10	< 10	< 10
CN1CCC(Nc2ccc(Nc3cnn(-c4ccc(CNC(=O)c5cc(F)cc6cccnc56)cc4)c3C(N)=O)nc2C(O)C2CC2)CC1 (stereo not shown)	≥60	≥50	< 10	< 10	< 10
COCCN1CCN(c2ccc(Nc3cnn(-c4ccc(CNC(=O)c5cc(F)cc6cccnc56)cc4)c3C(N)=O)nc2C(O)C2CC2)CC1 (stereo not shown)			< 10	< 10	< 10
NC(=O)c1c(Nc2ccc(N3CCN(C4COC4)CC3)c(C(O)C(F)(F)F)n2)cnn1-c1ccc(CNC(=O)c2cc(F)cc3cccnc23)cc1 (racemic)			< 10	< 10	< 10
[2H]C([2H])([2H])OCCN1CCN(c2ccc(Nc3cnn(-c4ccc(CNc5nccc6c(F)ccc(OC)c56)cc4)c3C(N)=O)nc2C(C)OC([2H])([2H])[2H])CC1 (stereo not shown)			< 10	< 10	< 10
COCCN1CCN(c2ccc(Nc3cnn(-c4ccc(CNc5nccc6c(F)ccc(OC)c56)cc4)c3C(N)=O)nc2C(O)C2CC2)CC1 (stereo not shown)			< 10	< 10	< 10
COc1ccc(F)c2ccnc(NCc3ccc(-n4ncc(Nc5ccc(NC6CCC(N(C)C)CC6)c(C(O)C6CC6)n5)c4C(N)=O)cc3)c12 (single isomer, unassigned)	≥60	≥50	< 10	< 10	< 10
CCC(O)c1nc(Nc2cnn(-c3ccc(CNC(=O)c4cc(F)cc5cccnc45)cc3)c2C(N)=O)ccc1N1CCN(C2COC2)CC1 (racemic)			< 10	< 10	< 10
COCCN1CCN(c2ccc(Nc3cnn(-c4ccc(CNC(=O)c5cc(F)cc6cccnc56)cc4)c3C(N)=O)nc2C(O)C(F)F)CC1 (single isomer, unassigned)			< 10	< 10	< 10

Results, then the molecule that gave them:

Human liver microsome (Remaining amount % at 60 min) [1] [%]	Mouse liver microsome (Remaining amount % at 60 min) [2] [%]	IC50 (BTK(WT) kinase) [nM]	IC50 (BTK(C481S) kinase) [nM]	IC50 (OCI-LY10 cells) [nM]	SMILES
≥60	≥50	< 10	< 10	< 10	CN(C)C1CCC(Nc2ccc(Nc3cnn(-c4ccc(CNC(=O)c5cc(F)cc6cccnc56)cc4)c3C(N)=O)nc2C(O)C(F)(F)F)CC1 (single isomer, unassigned)
≥60	≥50	< 10	< 10		COc1ccc(F)c2cc(C)nc(NCc3ccc(-n4ncc(Nc5ccc(N6CCC(N(C)C)CC6)c(C(OC)C(F)(F)F)n5)c4C(N)=O)cc3)c12 (single isomer, unassigned)
≥60	≥50	< 10	< 10	< 10	COC(c1nc(Nc2cnn(-c3ccc(CNC(=O)c4cc(F)cc5cccnc45)cc3)c2C(N)=O)ccc1N1CCC(N(C)C)CC1)C1CC1 (stereo not shown)
≥60	≥50	< 10	< 10	< 10	COc1ccc(F)c2ccnc(NCc3ccc(-n4ncc(Nc5ccc(N6CCC(N(C)C)CC6)c(C(O)C(F)(F)F)n5)c4C(N)=O)cc3)c12 (stereo not shown)
≥60		< 10	< 10	< 10	CN(C)C1CCN(c2ccc(Nc3cnn(-c4ccc(CNC(=O)c5cc(F)cc6cccnc56)cc4)c3C(N)=O)nc2)CC1
≥60	≥50	< 10	< 10	< 10	COC(c1nc(Nc2cnn(-c3ccc(CNC(=O)c4cc(F)cc5cccnc45)cc3)c2C(N)=O)ccc1N1CCC(N(C)C)CC1)C(F)(F)F (stereo not shown)
≥60	≥50	< 10	< 10	< 10	COc1ccc(F)c2ccnc(NCc3ccc(-n4ncc(Nc5ccc(NC6CCC(N(C)C)CC6)c(C(O)C(F)(F)F)n5)c4C(N)=O)cc3)c12 (stereo not shown)
≥60	≥50	< 10	< 10	< 10	COC(c1nc(Nc2cnn(-c3ccc(CNC(=O)c4cc(F)cc5cccnc45)cc3)c2C(N)=O)ccc1NC1CCN(C)CC1)C1CC1 (stereo not shown)
